Experimental data taken from patent US6849664B2, “Process for disposing biocide-containing cooling water” (priority 2001, dated 2005).

Tested on: bacterial inoculum
Type: cell-based
Method: Growth Media: A standard minimal media containing only inorganic nutrients required for bacterial growth was used. The medium used to supply inorganic micronutrients to the growing culture of alkane degrading organisms consists of 0.1 g/L MgSO4.7H2O, 0.5 g/L NaNO3, 0.02 mM FeSO4 and 0.63 g/L K2HPO4 and 0.19 g/L KH2PO4 to achieve a pH of 7 to 7.3.
Test Conditions: 90 ml of media and 10 ml of the product to be tested (n-C16) were added to 250 ml flasks. […] After inoculation, the flasks were placed on a shaker-table (135 rpm) at room temperature in contact with air and observed daily.
In all experiments, a 10:1 ratio of minimal media to Fischer-Tropsch diesel fuel were prepared and evaluated in 250 ml flasks.

## NCCO [MEA, monoethanolamine]
1 ppm MEA control without glutaraldehyde, time 0 days
  Growth / No Growth: −
1 ppm MEA control without glutaraldehyde, time 1 days
  Growth / No Growth: −
1 ppm MEA control without glutaraldehyde, time 2 days
  Growth / No Growth: −
1 ppm MEA control without glutaraldehyde, time 3 days
  Growth / No Growth: +
1 ppm MEA control without glutaraldehyde, time 7 days
  Growth / No Growth: +
1 ppm MEA control without glutaraldehyde, time 9 days
  Growth / No Growth: +
1 ppm MEA control without glutaraldehyde, time 14 days
  Growth / No Growth: +
10 ppm MEA control without glutaraldehyde, time 0 days
  Growth / No Growth: −
10 ppm MEA control without glutaraldehyde, time 1 days
  Growth / No Growth: −
10 ppm MEA control without glutaraldehyde, time 2 days
  Growth / No Growth: −
10 ppm MEA control without glutaraldehyde, time 3 days
  Growth / No Growth: +
10 ppm MEA control without glutaraldehyde, time 7 days
  Growth / No Growth: +
10 ppm MEA control without glutaraldehyde, time 9 days
  Growth / No Growth: +
10 ppm MEA control without glutaraldehyde, time 14 days
  Growth / No Growth: +
100 ppm MEA control without glutaraldehyde, time 0 days
  Growth / No Growth: −
100 ppm MEA control without glutaraldehyde, time 1 days
  Growth / No Growth: −
100 ppm MEA control without glutaraldehyde, time 2 days
  Growth / No Growth: −
100 ppm MEA control without glutaraldehyde, time 3 days
  Growth / No Growth: −
100 ppm MEA control without glutaraldehyde, time 7 days
  Growth / No Growth: −
100 ppm MEA control without glutaraldehyde, time 9 days
  Growth / No Growth: −
100 ppm MEA control without glutaraldehyde, time 14 days
  Growth / No Growth: +
500 ppm MEA control without glutaraldehyde, time 0 days
  Growth / No Growth: −
500 ppm MEA control without glutaraldehyde, time 1 days
  Growth / No Growth: −
500 ppm MEA control without glutaraldehyde, time 2 days
  Growth / No Growth: −
500 ppm MEA control without glutaraldehyde, time 3 days
  Growth / No Growth: −
500 ppm MEA control without glutaraldehyde, time 7 days
  Growth / No Growth: −
500 ppm MEA control without glutaraldehyde, time 9 days
  Growth / No Growth: −
500 ppm MEA control without glutaraldehyde, time 14 days
  Growth / No Growth: +

Where two headings read alike, the source gives them in different places.
